Values of other authors, collected in publication PMC8608967, “KDS2010, a Newly Developed Reversible MAO-B Inhibitor, as an Effective Therapeutic Candidate for Parkinson’s Disease” (Neurotherapeutics, 2021).

Tests used:
[1] = system: MPTP-induced PD mouse model; conditions: post-treatment or pre-treatment; cited from earlier work
[2] = system: APP/PS1 transgenic mouse model of AD; design: method as in PMID 30906861; conditions: long-term treatment (> 2 weeks); cited from earlier work

Structure (SMILES): C#CCN(C)[C@H](C)Cc1ccccc1 [selegiline, reference compound]
- therapeutic efficacy in the MPTP model [1]: significant therapeutic efficacy
- therapeutic effect of long-term treatment [2]: no therapeutic effect
